Consider one compound from ChEMBL document CHEMBL1145159 (J Med Chem, 2005).

Amino acid sequences for entries named in this document (tags omitted). A change or cut given only in a name is not applied to a line headed by its entry.
UniProt P17787: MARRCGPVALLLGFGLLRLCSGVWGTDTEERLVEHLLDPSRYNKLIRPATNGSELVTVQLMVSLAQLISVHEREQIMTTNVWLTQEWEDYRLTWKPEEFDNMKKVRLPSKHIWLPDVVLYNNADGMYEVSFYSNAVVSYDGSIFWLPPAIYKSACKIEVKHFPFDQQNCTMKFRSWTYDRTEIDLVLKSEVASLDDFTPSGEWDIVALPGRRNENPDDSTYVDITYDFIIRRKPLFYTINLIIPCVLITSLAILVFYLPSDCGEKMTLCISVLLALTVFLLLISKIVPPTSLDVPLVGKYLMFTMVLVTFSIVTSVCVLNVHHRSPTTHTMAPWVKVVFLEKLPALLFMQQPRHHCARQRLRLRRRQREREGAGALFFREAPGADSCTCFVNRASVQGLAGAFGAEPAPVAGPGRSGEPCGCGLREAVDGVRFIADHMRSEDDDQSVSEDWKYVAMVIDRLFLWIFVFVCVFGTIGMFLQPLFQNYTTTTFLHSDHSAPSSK
UniProt P43681: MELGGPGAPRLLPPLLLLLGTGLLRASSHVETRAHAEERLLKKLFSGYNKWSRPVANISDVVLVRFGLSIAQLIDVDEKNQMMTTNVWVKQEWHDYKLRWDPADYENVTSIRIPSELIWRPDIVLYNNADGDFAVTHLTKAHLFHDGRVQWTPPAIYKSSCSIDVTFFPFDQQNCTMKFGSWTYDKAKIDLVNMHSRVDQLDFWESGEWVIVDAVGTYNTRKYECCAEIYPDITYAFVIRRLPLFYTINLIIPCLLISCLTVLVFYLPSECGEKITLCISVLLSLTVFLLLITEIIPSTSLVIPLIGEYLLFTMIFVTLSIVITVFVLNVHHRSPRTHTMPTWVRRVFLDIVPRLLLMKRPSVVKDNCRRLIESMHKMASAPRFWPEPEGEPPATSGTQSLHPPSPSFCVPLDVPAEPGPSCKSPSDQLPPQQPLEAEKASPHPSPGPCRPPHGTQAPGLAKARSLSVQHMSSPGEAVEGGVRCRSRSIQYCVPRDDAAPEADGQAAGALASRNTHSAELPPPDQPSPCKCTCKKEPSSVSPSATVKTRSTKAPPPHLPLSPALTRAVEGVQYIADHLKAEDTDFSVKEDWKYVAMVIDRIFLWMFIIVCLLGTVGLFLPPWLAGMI

The target in the assay is Neuronal acetylcholine receptor; alpha4/beta2 (Homo sapiens, UniProt P17787+P43681). The experiment in a line: Inhibitory concentration against Nicotinic acetylcholine receptor alpha4-beta2. It counts as protein-complex assay.

Values joined by “and” are separate entries in the source; they are usually repeats but may differ in a detail not shown here. Identical values can stand only once.

Take `CC(NC(C)(C)C)C(=O)c1cccc(Cl)c1` (stereo unspecified) [BUPROPION]: the Concentration is 10 µM and 12 µM.
